These results are taken from PubChem BioAssay AID1441 (NMMLSC, 2008).

Sequences of proteins named here, by UniProt entry; tags and fusion partners are left off.
UniProt O15492, whole entry, looked up: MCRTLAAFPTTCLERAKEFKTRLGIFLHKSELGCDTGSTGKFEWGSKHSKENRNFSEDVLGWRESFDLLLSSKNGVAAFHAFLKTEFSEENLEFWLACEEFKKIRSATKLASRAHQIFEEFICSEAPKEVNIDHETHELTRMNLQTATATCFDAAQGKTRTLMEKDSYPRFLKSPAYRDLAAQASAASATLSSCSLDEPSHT
UniProt P09471, whole entry, looked up: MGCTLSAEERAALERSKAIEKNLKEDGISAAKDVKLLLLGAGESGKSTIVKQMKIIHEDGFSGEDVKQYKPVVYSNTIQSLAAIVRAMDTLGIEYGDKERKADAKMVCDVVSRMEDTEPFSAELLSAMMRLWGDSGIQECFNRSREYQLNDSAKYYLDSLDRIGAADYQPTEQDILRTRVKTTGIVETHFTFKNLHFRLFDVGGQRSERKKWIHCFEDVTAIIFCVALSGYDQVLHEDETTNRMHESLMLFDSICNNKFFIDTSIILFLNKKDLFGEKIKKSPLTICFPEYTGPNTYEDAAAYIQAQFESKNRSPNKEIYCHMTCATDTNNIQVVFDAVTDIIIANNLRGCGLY

The list shows a part of the results, in another mix than the full data. Active and inactive are the calls of the source. No rule for the calls is given here.

The target of this test is Regulator of G-protein signaling 16 (Homo sapiens) + Guanine nucleotide-binding protein G(o) subunit alpha (Homo sapiens) (UniProt O15492+P09471). The experiment in a line: modulators of RGS16 binding to Galphao, primary screen, biochemical, human proteins, multiplexed bead flow cytometry (AID 1441).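 Also: Galphao activated by GDP with aluminum fluoride before binding.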 The conditions noted are these: bead-based flow cytometry RGS16-Galphao binding, fluorescence; at 10 µM; actives lie on both sides. (In general: A flow cytometer gives signals particle by particle.)
Take `CCc1ccc(OP(C)(=O)O)cc1`: the binding response (% of control) is inactive: 95.2%. For `COc1ccccc1OP(C)(=O)Nc1ccc(C)cc1C` (stereo unspecified), the binding response (% of control) is inactive: 99.6%. As to `CP(=O)(Nc1ccccn1)Oc1ccccc1` (stereo unspecified), the binding response (% of control) was inactive: 110%. In the case of `O=C(NC(Sc1ccncn1)C(Cl)(Cl)Cl)c1ccccc1` (stereo unspecified), the binding response (% of control) is inactive: 85.5%.

In the case of `Cc1c2non([O-])c-2c(C)[n+](=O)[n+]1[O-]`, the binding response (% of control) is inactive: 62.1%. The figure for `Nc1cc(N)c2nonc2c1[N+](=O)[O-]` is inactive: 107%. For `Cc1c(NP(C)(=O)Oc2ccc(C(C)C)cc2)c(=O)n(-c2ccccc2)n1C` (stereo unspecified) the value was inactive: 100%. The figure for `O=[N+]([O-])c1cc([N+](=O)[O-])c(Nc2ccccn2)c([N+](=O)[O-])c1` is inactive: 107%; for `CC(C)CC(=O)NC(Sc1ccc(Cl)cc1)C(Cl)(Cl)Cl` (stereo unspecified) it is inactive: 98%. As to `CN1CCCC(OC(=O)C(c2ccccc2)c2ccccc2)C1` (stereo unspecified), the binding response (% of control) was inactive: 105%. `CN(C)CCOC(=O)C(O)(c1ccccc1)C1CCCC1` (stereo unspecified): the binding response (% of control) was inactive: 100%. The figure for `Cc1ccc(OP(=O)(Nc2nccs2)Oc2ccc(C)cc2)cc1` is inactive: 108%; for `COc1ccc(OP(C)(=O)Nc2ccccn2)cc1` (stereo unspecified) it is inactive: 172%.

In the case of `COc1ccccc1OP(C)(=O)Nc1ccc(Br)cc1` (stereo unspecified), the binding response (% of control) was inactive: 91.6%. The figure for `CP(=O)(Nc1ccc(Cl)cc1Cl)Oc1ccccc1` (stereo unspecified) is inactive: 90.5%; for `CP(=O)(OCCOc1ccccc1)OCCOc1ccccc1` it is inactive: 104%; for `Nc1cccc2ccc([As](=O)(O)O)cc12` it is inactive: 96.3%. As for `CCN(N=Nc1nonc1N)c1nonc1N`, the binding response (% of control) is inactive: 98.9%.

Regarding `Cc1nc2ccc3ccccc3c2o1.O=[N+]([O-])c1cc([N+](=O)[O-])c(O)c([N+](=O)[O-])c1`, the binding response (% of control) was inactive: 113%. For `COc1ccc(OP(C)(=O)Nc2ccccc2Br)cc1` (stereo unspecified), the binding response (% of control) is inactive: 97.9%. For `COc1ccccc1OP(C)(=O)Nc1ccc(C)c(C)c1` (stereo unspecified) the value was inactive: 101%. For `Cc1ccc(NP(=O)(Oc2ccccc2F)Oc2ccccc2F)nc1`, the binding response (% of control) is inactive: 115%. On to `Cc1cc(SC(NC(=O)c2ccc(F)cc2)C(Cl)(Cl)Cl)ncn1` (stereo unspecified), for which the binding response (% of control) was inactive: 96.6%.

Consider `CCOP(=O)(Nc1ccccc1)OCC`, for which the binding response (% of control) is inactive: 106%.

Regarding `O=P(Nc1nc2ccc(Cl)cc2s1)(c1ccccc1)c1ccccc1`, the binding response (% of control) is inactive: 93.6%.

For `Cc1cc(C)cc(OP(C)(=O)Nc2cccc(C(F)(F)F)c2)c1` (stereo unspecified), the binding response (% of control) was inactive: 103%. Regarding `CC(=O)Nc1ccc([As](=O)(O)O)cc1`, the binding response (% of control) was inactive: 93.4%. On to `O=C(O)c1ccccc1[As](=O)(O)O`, for which the binding response (% of control) is inactive: 97.5%. `O=C(O)CNc1ccc([As](=O)(O)O)cc1`: the binding response (% of control) was inactive: 126%. On to `O=[N+]([O-])c1cccc(NC2=NCC(CBr)S2)c1` (stereo unspecified), for which the binding response (% of control) is inactive: 100%. As for `O=[N+]([O-])c1ncn(CCn2ncnc2[N+](=O)[O-])n1`, the binding response (% of control) is inactive: 105%. Regarding `CC(C)(C)C(=O)NC(Sc1ccncn1)C(Cl)(Cl)Cl` (stereo unspecified), the binding response (% of control) is inactive: 97.2%. Regarding `CP(=O)(OC12CC3CC(CC(C3)C1)C2)OC12CC3CC(CC(C3)C1)C2`, the binding response (% of control) is inactive: 102%. For `CCOC(=O)c1ccc(NP(C)(=O)Oc2ccc(Cl)cc2)cc1` (stereo unspecified), the binding response (% of control) is inactive: 79.3%. Turning to `CC1CCN(C(=O)Oc2c(Cl)cc(Cl)c3cccnc23)CC1`, the binding response (% of control) was inactive: 90.2%. The figure for `CN(C)C(=O)OCCc1n(C)cc[n+]1C` is inactive: 104%. Regarding `CC(C)=N/N=C(\N)N[N+](=O)[O-]`, the binding response (% of control) is inactive: 48.6%.

For the molecule `CN(C)C(=O)c1c([N+](=O)[O-])cc([N+](=O)[O-])cc1[N+](=O)[O-]`, the binding response (% of control) was inactive: 92.2%. For `CP(=O)(Nc1ccc(Cl)cc1)Oc1ccc(F)cc1` (stereo unspecified), the binding response (% of control) was inactive: 103%. Regarding `CCN(/C(=N/P(=O)(N1CCOCC1)N1CCOCC1)N1CCOCC1)c1ccc(OC)cc1`, the binding response (% of control) was inactive: 105%.

For `C[N+]1=C2C=CC=CC=C2SC12C([N+](=O)[O-])=CC([N+](=O)[O-])=C[C-]2[N+](=O)[O-]` (stereo unspecified), the binding response (% of control) was inactive: 74.2%.

Turning to `COc1ccccc1OP(C)(=O)Nc1ccccc1Br` (stereo unspecified), the binding response (% of control) was inactive: 107%. `CC(C)(C)c1ccc(OP(C)(=O)O)cc1`: the binding response (% of control) was inactive: 100%. `CCc1ccc(OP(C)(=O)Nc2cccnc2)cc1` (stereo unspecified): the binding response (% of control) is inactive: 99.1%. Regarding `O=[N+]([O-])c1cc([N+](=O)[O-])c(CCNc2ccccc2)c([N+](=O)[O-])c1`, the binding response (% of control) was inactive: 105%. `CCc1nc2c(n1)c1c(non1O)c1c2no[n+]1[O-]`: the binding response (% of control) is inactive: 106%. In the case of `Cc1ccc(NP(=O)(Oc2ccccc2)Oc2ccccc2)nc1`, the binding response (% of control) was inactive: 102%. For the molecule `CP(=O)(Oc1ccccc1)N1CCOC1=O` (stereo unspecified), the binding response (% of control) is inactive: 108%. As for `O=C(OCCCN1CCCC1)C(O)(c1ccccc1)C1CCCCC1` (stereo unspecified), the binding response (% of control) is inactive: 106%. Take `O=[N+]([O-])c1cccc2n[nH]nc12`: the binding response (% of control) was inactive: 96.8%. On to `COc1ccc(C2=NCC(CBr)S2)cc1` (stereo unspecified), for which the binding response (% of control) is inactive: 110%.
